This note sets out measurements from patent US20250215101A1, “DR5 Agonist and PLK1 Inhibitor or CDK Inhibitor Combination Therapy” (Inhibrx Biosciences, Inc., priority 2022, published 2025).

Series [1] concerns CAL-78, OUMS-27, SW1353, H-EMC-SS, SW620, HS-SY-II. The series is described as follows: Cytotoxicity screens INBRX-109 + CDK9 or MCL-1 inhibitor, summary over the cell lines. Type of series: cell-based. Particulars: combination with INBRX-109. An excerpt: Data was graphed in GraphPad Prism 9.
Another series deals with CAL-78. The series is described as follows: Cell viability (CellTiter-Glo) cytotoxicity assay, INBRX-109 x CDK9 or MCL-1 inhibitor matrix, 48 h, chondrosarcoma line. Background: Cellular ATP, detected with luciferase, serves as a proxy for viable cell number.

For the compound `CCc1cnn2c(NCc3ccc[n+]([O-])c3)cc(N3CCCC[C@H]3CCO)nc12` [Dinaciclib], in series [1], the “cell killing by the combination” value is “increased cell killing on nearly every cancer cell line tested”. Moreover, the “Max Cytotox” value in the series on CAL-78 (dinaciclib + 1 nM INBRX-109) came out at 91.4%. For the same compound, the “Max Cytotox at 25 nM” value in the series with CAL-78 (dinaciclib only) stood at 47.1%.
